Data published in patent US12358893B2, “Metalloenzyme inhibitor compounds” (Corxel Pharmaceuticals Hong Kong Limited, priority 2019, dated 2025).

Sequences of proteins named here, by UniProt entry; tags and fusion partners are left off. Residues count along the entry.
UniProt P15538, 25-503 limits assumed: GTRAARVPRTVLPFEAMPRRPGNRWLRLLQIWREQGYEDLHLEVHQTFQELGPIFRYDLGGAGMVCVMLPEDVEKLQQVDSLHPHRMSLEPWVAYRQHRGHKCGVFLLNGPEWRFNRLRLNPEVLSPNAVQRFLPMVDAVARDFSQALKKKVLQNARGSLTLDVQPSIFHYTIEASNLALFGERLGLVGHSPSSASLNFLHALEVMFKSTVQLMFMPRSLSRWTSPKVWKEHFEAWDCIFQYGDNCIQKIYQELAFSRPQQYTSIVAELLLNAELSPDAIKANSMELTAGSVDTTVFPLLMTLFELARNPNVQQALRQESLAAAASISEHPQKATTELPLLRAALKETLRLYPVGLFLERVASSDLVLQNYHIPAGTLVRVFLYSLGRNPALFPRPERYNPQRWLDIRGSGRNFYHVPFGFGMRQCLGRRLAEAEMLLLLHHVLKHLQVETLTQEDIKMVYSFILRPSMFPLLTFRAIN
UniProt P19099, 25-503 limits assumed: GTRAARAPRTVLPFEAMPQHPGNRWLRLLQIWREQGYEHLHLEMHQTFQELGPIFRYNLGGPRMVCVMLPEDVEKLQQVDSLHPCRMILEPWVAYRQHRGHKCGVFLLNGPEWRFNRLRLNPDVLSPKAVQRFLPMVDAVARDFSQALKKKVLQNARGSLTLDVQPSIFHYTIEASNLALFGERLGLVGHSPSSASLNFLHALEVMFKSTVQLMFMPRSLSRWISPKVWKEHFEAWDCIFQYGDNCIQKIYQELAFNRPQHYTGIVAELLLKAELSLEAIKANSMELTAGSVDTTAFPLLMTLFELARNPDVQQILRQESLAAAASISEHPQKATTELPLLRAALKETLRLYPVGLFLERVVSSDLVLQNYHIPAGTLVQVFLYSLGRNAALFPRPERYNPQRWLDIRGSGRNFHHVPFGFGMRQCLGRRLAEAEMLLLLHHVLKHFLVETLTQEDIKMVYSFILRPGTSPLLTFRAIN

Tests used:
[1] = target: recombinant human CYP11B1 (Homo sapiens, UniProt P15538); experiment: CYP11B1 enzyme assay with enzyme enriched microsomes, cortisol measured by LC-MS; conditions: read-out: hCYP11B1 IC50; microsomes from V79-4 cells; 11-deoxycortisol at Km
Experimental: (§1) V79-4 cells expressing recombinant andrenodoxin and andrenodoxin reductase with either recombinant human CYP11B2 or CYP11B1 were prepared according to methods previously described (LaSala et al 2009 Anal Bioch 394:56-61). An enzyme enriched microsomal fraction was prepared from cellular lysates and subsequently used as the enzyme source for determining inhibitor IC50s. The substrate Km values were experimentally determined for 11-deoxycorticosterone (CYP11B2 substrate) and 11-deoxycortisol (CYP11B1 substrate). Enzyme assays for inhibitor screening employed CYP11B2 and CYP11B1 enzyme enriched microsomes and were run at the Km of the respective substrates. Products of the enzyme reactions, aldosterone for CYP11B2 or cortisol for CYP11B1, were measured by LC-MS. Assays were run under conditions of less than 20% substrate turnover. Inhibitor IC50s were generated by determining the product formation in the absence or presence of inhibitor at various concentrations. In the absence of the test compound, the product formed (Pt) in each data set was defined as 100% activity. In the absence of enzyme, the product formed (Pb) in each data set was defined as 0% activity. The percent activity in the presence of each inhibitor was calculated according to the following equation: % activity=(P−Pb)/(Pt−Pb), where P=the product formed in the presence of the inhibitor. […]

[2] = target: recombinant human CYP11B2 (Homo sapiens, UniProt P19099); experiment: CYP11B2 enzyme assay with enzyme enriched microsomes, aldosterone measured by LC-MS; conditions: read-out: hCYP11B2 IC50; microsomes from V79-4 cells; 11-deoxycorticosterone at Km
Experimental: as §1

Compound	IC50 [1] [nM]	IC50 [2] [nM]
N#Cc1ccc2nc(-n3cnc4cnccc43)n(C3CC3)c2n1	> 10000	100 to 1000
N#Cc1ccc2nc(-n3cnc4ccncc43)n(C3CC3)c2n1	1000 to 10000	1 to 100
